The chains behind the UniProt entries cited, without tags or fusion partners.
UniProt P21397, whole entry: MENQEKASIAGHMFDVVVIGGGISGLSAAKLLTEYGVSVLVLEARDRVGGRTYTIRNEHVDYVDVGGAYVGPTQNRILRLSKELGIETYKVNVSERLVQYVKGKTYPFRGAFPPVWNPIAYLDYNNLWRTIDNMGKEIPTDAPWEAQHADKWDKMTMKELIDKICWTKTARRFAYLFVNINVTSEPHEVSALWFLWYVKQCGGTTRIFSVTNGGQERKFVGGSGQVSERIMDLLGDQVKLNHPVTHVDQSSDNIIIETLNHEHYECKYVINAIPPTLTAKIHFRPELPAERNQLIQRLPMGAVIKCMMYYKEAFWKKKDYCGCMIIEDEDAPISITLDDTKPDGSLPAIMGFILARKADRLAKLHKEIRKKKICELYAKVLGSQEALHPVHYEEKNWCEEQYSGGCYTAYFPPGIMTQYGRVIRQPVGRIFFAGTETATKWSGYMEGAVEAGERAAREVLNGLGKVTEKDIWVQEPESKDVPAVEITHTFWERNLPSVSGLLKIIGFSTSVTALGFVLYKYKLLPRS

In ChEMBL document CHEMBL2424529, “Nonpeptidic propargylamines as inhibitors of lysine specific demethylase 1 (LSD1) with cellular activity” (J Med Chem, 2013):

Target: Amine oxidase [flavin-containing] A (Homo sapiens, UniProt P21397)
Assay: Inhibition of MAOA (unknown origin) using kynuramine as substrate after 1 hr by fluorescence assay
How it was run: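 Commercial MAO-A or MAO-B enzyme was used at 1:100 dilution with inhibitor in DMSO in PBS pH 7.4 (4.4 mM KH2PO4, 45 mM Na2HPO4, 100 mM NaCl). Reaction was started with kynuramine (500 µM DMSO stock added). After 1 h at 37 °C it was stopped with 2 M NaOH, and fluorescence was read (ex 330, em 390 nm).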

C#CCN(C)Cc1ccccc1 [PARGYLINE]
IC50: 3.39 µM
